Consider one substance from patent US10206937B2, “Boronic acid derivatives and therapeutic uses thereof” (Qpex Biopharma, Inc., priority 2014, dated 2019).

By UniProt entry, the sequences of proteins in these tests, tags left out. Residues count along the entry.
UniProt C7C422, 29-270, looked up, species assumed: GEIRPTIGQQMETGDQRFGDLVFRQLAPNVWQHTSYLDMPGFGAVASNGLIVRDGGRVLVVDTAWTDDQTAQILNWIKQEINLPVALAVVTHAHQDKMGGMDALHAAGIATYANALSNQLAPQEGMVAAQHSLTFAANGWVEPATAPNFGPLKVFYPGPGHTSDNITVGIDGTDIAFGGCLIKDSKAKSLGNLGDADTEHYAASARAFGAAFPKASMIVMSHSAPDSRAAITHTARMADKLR

Read-outs that look alike come from different tables or passages of the source.

In one test the target is NDM-1 (Klebsiella pneumoniae, UniProt C7C422). The test is classed as biochemical.
A further test has as its target T1, VIM-1 (Pseudomonas aeruginosa, UniProt A0A0F7KYQ8).
T1 construct: made in house; host or cells: ECM6711 strain carrying pUCP24-VIM-1 plasmid; culture supernatant used unpurified
In kind it is biochemical.

EDTA [reference compound]: the Ki on NDM-1 (cleavage of biapenem (100 uM) by NDM-1, read-out: Ki, Biapenem) lay in the range of 10 to 100 nM; on NDM-1 (cleavage of imipenem (100 uM) by NDM-1, read-out: Ki, Imipenem), 10 to 100 nM; on NDM-1 (cleavage of meropenem (100 uM) by NDM-1, read-out: Ki, Meropenem) it was 10 to 100 nM; at NDM-1 (cleavage of tebipenem (100 uM) by NDM-1, read-out: Ki, Tebipenem) it was 10 to 100 nM. On VIM-1, the IC50 was < 1000 nM.

Usually Ki stands for a measure of affinity in units of concentration, obtained from inhibition or displacement. The IC50 is the point on the concentration scale where inhibition reaches its midpoint.
